# The list shows a part of the results, in another mix than the full data. Active and inactive are the calls of the source. The call rests on the fitted dose curve; in most records, active means well fitted inhibition curve with a large enough effect; inconclusive means small, poorly fitted or top-dose-only effect; inactive means flat fitted curve, though single readings scatter.
# Assay: qHTS for Inhibitors of Vif-A3F Interactions: qHTS; further: % of control where 0% means no effect; nearly all actives have a fitted effect of over 65% in size
# Conditions: HeLa A3F-eYFP + Vif (tagged APOBEC3F with the HIV-1 protein that degrades it), YFP fluorescence increase; at 46.1 µM (top of the series)
# Description: The recent discovery and characterization of host restriction factors, which provide a potent defense to invading retroviruses, has provided new targets for antiviral drug development. APOBEC3G (A3G) and APOBEC3F (A3F) are potent cytidine deaminases that block HIV-1 replication; HIV-1 expresses the Vif protein, which counteracts A3G and A3F by binding to them and inducing their proteasomal degradation. The Vif-A3G and Vif-A3F interactions provide two potential targets for development of small molecules which can interfere with the ability of Vif to degrade A3G or A3F. […] To identify inhibitors that can interfere with Vif mediated degradation of A3G and A3F, we have developed Hela cell lines that stably express A3G or A3F tagged with eYFP at the C-terminal end (A3G-eYFP or A3F-eYFP, respectively) and Vif. In the absence of an inhibitor, Vif induces degradation of A3G-eYFP and A3F-eYFP, and the cells are not fluorescent. In the presence of an inhibitor, it is expected that Vif will be unable to degrade A3G-eYFP and/or A3F-eYFP, resulting in an increase in yellow fluorescence. In this assays Vif A3F was screened against the Molecular Library Small Molecule Repository (MLSMR). NIH Chemical Genomics Center [NCGC] NIH Molecular Libraries Probe Centers Network [MLPCN] MLPCN Grant: MH093245 Assay Submitter (PI): Vinay Pathak, National Cancer Institute
# 5 uL of 700 cells/well of A3F-YFP cells are dispensed into black, clear bottom plates. The plates are incubated overnight at 37 deg C. 23 nL of compounds are added by pintool. The plates are incubated overnight at 37 deg C and then read on the TTP Acumen (Ex 488/ Em 500-530).
row,SMILES,"activity, negative = active"
1,O=P1(N(CCCl)CCCl)OCCC2CCCCN21 (stereo not drawn),inactive: 11.4%
2,CCNC(=S)/N=C(\N)N[N+](=O)[O-],inactive: -0.125%
3,O=C(NC1CCS(=O)(=O)C1)NP(=S)(Oc1ccccc1)Oc1ccccc1 (stereo not drawn),inactive: 6.36%
4,c1ccc(-c2nn[nH]n2)c(-c2nn[nH]n2)c1,inactive: -2.22%
5,Cc1ccc(NP(=O)(Oc2cccc(C)c2)Oc2cccc(C)c2)nc1,inactive: 1.23%
6,Cc1ccccc1OP(=O)(Nc1ccccn1)Oc1ccccc1C,inactive: 5.39%
7,CC(NC(=O)COC(=O)C(O)(c1ccccc1)c1ccccc1)c1ccccc1 (stereo not drawn),inactive: 4.25%
8,CN(C)C(=O)Oc1noc2ccccc12,inactive: -2.24%
9,O=c1c2cc([N+](=O)[O-])ccc2[nH]c2c([N+](=O)[O-])cc([N+](=O)[O-])cc12,inactive: 0.298%
10,COC(=O)c1cc2c(s1)N=C(c1ccccc1)N(C)P2(=O)N1CCOCC1 (stereo not drawn),inactive: 6.8%
11,Cc1ccc(OP(=O)(Nc2ccccn2)Oc2ccc(C)cc2)cc1,inactive: 6.19%
12,CC(=O)NC(SC(=S)N(CC(C)C)CC(C)C)C(Cl)(Cl)Cl (stereo not drawn),inactive: -0.0209%
13,O=C(OC1CN2CCC1CC2)c1ccccc1 (stereo not drawn),inactive: 9.67%
14,CCC(=O)N1C2C3N(C(=O)CC)C1C1N(C(=O)CC)C(C(N1C(=O)CC)N3C(=O)CC)N2C(=O)CC,inactive: -3.57%
15,CCc1cc(O)c([N+](=O)[O-])c(C)c1[N+](=O)[O-],inactive: 4.11%
16,CC(C)(C)C(=O)NC(Sc1ccccc1)C(Cl)(Cl)Cl (stereo not drawn),inactive: 4.75%
17,O=P1(Nc2nc3ccc(Cl)cc3s2)COc2ccccc2O1 (stereo not drawn),inactive: 3.93%
18,CCOc1ccc(C2=NCC(CBr)S2)cc1 (stereo not drawn),inactive: -6.11%
19,CC(=O)Nc1ccc([As](=O)(O)O)c(O)c1,inactive: 0.385%
20,CC(=O)Nc1ccc(Oc2c([N+](=O)[O-])cc([N+](=O)[O-])cc2[N+](=O)[O-])cc1,inactive: 2.3%
21,N#C/C(=C\c1ccc(N(CCBr)CCBr)cc1)C(N)=O,inactive: 8.03%
22,CC(=O)c1ccc(N2CC2c2ccncc2)cc1 (stereo not drawn),inactive: 4.54%
23,COC(=O)C1(C)COP(=O)(NCc2ccccc2)OC1 (stereo not drawn),inactive: -19.7%

row,SMILES,"activity, negative = active"
1,Cc1ccccc1CN(C)C(=O)COC(=O)C(O)(c1ccccc1)c1ccccc1,inactive: 1.4%
2,C[C@@H]1C=CCP(=O)(Oc2ccccc2)O1 (stereo partly drawn),inactive: -5.52%
3,C[C@H]1OP(=O)(Oc2ccccc2)C[C@@H]2O[C@@H]21 (stereo partly drawn),inactive: -9.43%
4,COc1ccccc1OP(=O)(Nc1ccc(C)cn1)Oc1ccccc1OC,inactive: -11.7%
5,Cc1ccc(OP(=O)(Nc2nccs2)Oc2ccc(C)cc2)cc1,inactive: -12.4%
6,Clc1ccc(Cl)c(NC2=NCC(CBr)S2)c1 (stereo not drawn),inactive: -1.22%
7,CN1CCCC(OC(=O)C(c2ccccc2)c2ccccc2)C1 (stereo not drawn),inactive: -3.15%
8,NC(=O)c1cc([N+](=O)[O-])cc([N+](=O)[O-])c1N,inactive: -3.43%
9,CN(C(=O)Cc1ccc(Cl)c(Cl)c1)[C@H]1CCCC[C@H]1N1CCCC1,inactive: 8.7%
10,Cc1ccc(N/C(=N/P(=O)(N2CCOCC2)N2CCOCC2)N2CCOCC2)cc1,inactive: 7.43%
11,CC(C)CC(=O)NC(Sc1ccc(Cl)cc1)C(Cl)(Cl)Cl (stereo not drawn),inactive: -1.4%
12,Nc1cc(N)c2nonc2c1[N+](=O)[O-],inactive: -0.806%
13,Oc1ccccc1CNc1ccccn1,inactive: -0.395%
14,O=C(NC(Sc1ccncn1)C(Cl)(Cl)Cl)c1ccccc1 (stereo not drawn),inactive: 2.61%
15,CCOP(=O)(Nc1ccccc1)OCC,inactive: 1.88%
16,Cc1cc(SC(NC(=O)c2ccc(F)cc2)C(Cl)(Cl)Cl)ncn1 (stereo not drawn),inactive: -2.38%
17,Cc1ccc(NP(=O)(Oc2ccccc2F)Oc2ccccc2F)nc1,inactive: 2.74%
18,CN(C(=O)Cc1ccc(Cl)c(Cl)c1)[C@H]1CCCC[C@@H]1N1CCCC1,inactive: 2.14%
19,O=C(O)c1ccccc1[As](=O)(O)O,inactive: 11.7%
20,CC(=O)Nc1ccc([As](=O)(O)O)cc1,inactive: 5.45%
21,CCCC1OP(N)(=O)OCC1CC (stereo not drawn),inactive: -11.7%
22,CN(C)P(=O)(N(C)C)n1c(Nc2ccccc2)nnc1-c1ccccc1,inactive: -1.05%
23,O=P(Nc1nc2ccc(Cl)cc2s1)(c1ccccc1)c1ccccc1,inactive: 5.22%

row,SMILES,"activity, negative = active"
1,CCN(N=Nc1nonc1N)c1nonc1N,inactive: 5.8%
2,Nc1cccc2ccc([As](=O)(O)O)cc12,inactive: -3.65%
3,O=C(Nc1cc([As](=O)(O)O)ccc1O)c1ccccc1,inactive: -3.04%
4,O=P1(N(CCCl)CCCl)OCCCS1 (stereo not drawn),inactive: -11.9%
5,O=[N+]([O-])c1cccc(NC2=NCC(CBr)S2)c1 (stereo not drawn),inactive: -0.103%
6,COC(=O)C1(C)COP(=O)(Nc2ccccc2)OC1 (stereo not drawn),inactive: 2.8%
7,O=C(O)CNc1ccc([As](=O)(O)O)cc1,inactive: -6.44%
8,CC(C)(C)C(=O)NC(Sc1ccncn1)C(Cl)(Cl)Cl (stereo not drawn),inactive: 0.821%
9,O=[N+]([O-])c1ncn(CCn2ncnc2[N+](=O)[O-])n1,inactive: 2.09%
10,O=[N+]([O-])c1cccc2n[nH]nc12,inactive: -5.02%
11,CC(=O)N1C2C3N(C(C)=O)C1C1N(C(C)=O)C(C(N1C(C)=O)N3C(C)=O)N2C(C)=O,inactive: -9.18%
12,Cc1ccc(NP(=O)(Oc2ccccc2)Oc2ccccc2)nc1,inactive: 9.24%
13,CCc1nc2c(n1)c1c(non1O)c1c2no[n+]1[O-],inactive: -1.99%
14,COc1ccc(C2=NCC(CBr)S2)cc1 (stereo not drawn),inactive: -18.4%
15,CC(C)=N/N=C(\N)N[N+](=O)[O-],inactive: -5.09%
16,CC(C)c1nc(Nc2ccccc2)n(P(=O)(N(C)C)N(C)C)n1,inactive: 4.71%
17,CN(C)C(=O)OCCc1n(C)cc[n+]1C,inactive: 0.942%
18,c1cc(-c2nn[nH]n2)ccc1-c1nn[nH]n1,inactive: 2.55%
19,CC1CCN(C(=O)Oc2c(Cl)cc(Cl)c3cccnc23)CC1,inactive: -17.7%
20,Nc1ccc([As](=O)(O)c2ccc(N)cc2)cc1,inactive: 5.25%
21,C[N+]1=C2C=CC=CC=C2SC12C([N+](=O)[O-])=CC([N+](=O)[O-])=C[C-]2[N+](=O)[O-] (stereo not drawn),inactive: 10.7%
22,CCN(/C(=N/P(=O)(N1CCOCC1)N1CCOCC1)N1CCOCC1)c1ccc(OC)cc1,inactive: -5.61%

# Reference: PubChem BioAssay AID602313 (National Center for Advancing Translational Sciences (NCATS), 2012)
